Each compound was assayed on SDMA in HAP1 MTAP-deleted (MTAP-null) cell line (PRMT5 inhibition) (assay: SDMA in-cell western assay, HAP1 MTAP-deleted cell line). Details: ratio of SDMA IC50 in HAP1 MTAP-intact to HAP1 MTAP-deleted cell line.

Row | SMILES | Hap1 MTAP intact/deleted ratio
1 | Nc1ncc(NC(=O)C(=O)N(Cc2ccccc2)Cc2ccccc2)c2[nH]ncc12 [Compound 21, N-(4-amino-1H-pyrazolo[4,3-c]pyridin-7-yl)-N′,N′-dibenzyl-oxamide] | A (IC50 ratio greater than or equal to 30 fold)
2 | C[C@@H](c1ccc(C(F)(F)F)cc1C(F)(F)F)N(C)C(=O)C(=O)Nc1cnc(N)c2cn[nH]c12 [Compound 169, N-(4-Amino-2H-pyrazolo[4,3-c]pyridin-7-yl)-N′-methyl-N′—[(1S)-1-[2,4-bis (trifluoromethyl)phenyl]ethyl]oxamide] | A (IC50 ratio greater than or equal to 30 fold)
3 | C[C@H](c1ccc(F)cc1)N(C)C(=O)C(=O)Nc1cnc(N)c2cn[nH]c12 [Compound 144, (R)—N^1-(4-amino-1H-pyrazolo[4,3-c]pyridin-7-yl)-N^2-(1-(4-fluorophenyl)ethyl)-N^2-methyloxalamide] | A (IC50 ratio greater than or equal to 30 fold)
4 | C[C@H](c1ccc(C(F)(F)F)cc1C(F)(F)F)N(C)C(=O)C(=O)Nc1cnc(N)c2cn[nH]c12 [Compound 193, N-(4-Amino-2H-pyrazolo[4,3-c]pyridin-7-yl)-N′-methyl-N′—[(1R)-1-[2,4-bis (trifluoromethyl)phenyl]ethyl]oxamide] | A (IC50 ratio greater than or equal to 30 fold)
5 | C[C@H](c1ccccc1F)N(C)C(=O)C(=O)Nc1cnc(N)c2cn[nH]c12 [Compound 162, (R)—N^1-(4-amino-1H-pyrazolo[4,3-c]pyridin-7-yl)-N^2-(1-(2-fluorophenyl)ethyl)-N^2-methyloxalamide] | A (IC50 ratio greater than or equal to 30 fold)

From US20250136594A1 (Tango Therapeutics, Inc., priority 2022, published 2025)
